Drawing on article PMC9691367, “The PROTAC selectively degrading Bcl-xL represents a novel Hedgehog pathway inhibitor with capacity of combating resistance to Smoothened inhibitors while sparing bone growth” (Theranostics, 2022), this text covers Ki for one compound.

Chains of the proteins cited; added tags and fusions are not shown.
UniProt P10415, whole entry, species assumed: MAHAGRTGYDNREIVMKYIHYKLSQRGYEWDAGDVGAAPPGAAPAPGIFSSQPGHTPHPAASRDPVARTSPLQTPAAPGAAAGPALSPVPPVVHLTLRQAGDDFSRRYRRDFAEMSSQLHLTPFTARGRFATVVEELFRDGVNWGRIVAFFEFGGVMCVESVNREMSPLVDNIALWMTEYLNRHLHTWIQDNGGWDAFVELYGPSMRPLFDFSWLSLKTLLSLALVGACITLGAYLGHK

The assay deals with Bcl-2 (Homo sapiens, UniProt P10415). The assay is described as follows: Competitive fluorescence polarization assay, Bcl-2 / FAM-Bax. It is filed as binding. To be noted: Bcl-2 100 nM, FAM-Bax 5 nM. As to the method: Competitive fluorescence polarization assays were carried out in black-walled plates in assay buffer (20 mM Na2HPO4 ·12H2O, 20 mM NaH2PO4·12H2O, 1 mM EDTA, 50 mM NaCl, 0.05% PF-68). The use of protein/peptide probe pairs was as follows: Bcl-xL (5 nM) and FAM-Bad (5 nM), Bcl-2 (100 nM) and FAM-Bax (5 nM), Mcl-1 (100 nM) and FAM-Bim (5 nM). Assay buffer, proteins, drugs, and peptides were added to the assay plates sequentially. The assay plates were slightly shaken for 3 min and incubated for 30 min at room temperature. The fluorescence polarization was measured on a Synergy 2 reader (BioTek).
For orientation: Polarisation of emitted light reports the rotation of a fluorescent probe.

Take `CC1(C)CCC(c2ccc(Cl)cc2)=C(CN2CCN(c3ccc(C(=O)NS(=O)(=O)c4ccc(N[C@H](CCN5CCOCC5)CSc5ccccc5)c(S(=O)(=O)C(F)(F)F)c4)cc3)CC2)C1` [ABT-263, reference compound]: the Ki stood at 1.95 ± 1.14 nM.

A word on the Ki: it is a dissociation constant, usually derived from enzyme kinetics or from competition with a known ligand.
